Here are results for three compounds from PubChem BioAssay AID1671193 (National Center for Advancing Translational Sciences (NCATS), 2021).

The entries are a selection whose mix differs from that of the whole data set. Inconclusive results are not listed. The source made the active and inactive calls. Calls come from the whole dose curve; as a rule, active = well fitted cell-killing curve with a large enough effect; inconclusive = small, poorly fitted or top-dose-only effect, or effect the other way; inactive = flat fitted curve, though single readings scatter.

The experiment in a line: GF-AFC viability counterscreen for inhibitors of alpha-synuclein gene (SNCA) expression.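 Note: 0% = DMSO-treated cells and -100% = medium-only wells without cells; nearly all actives have a fitted effect of over 30% in size.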 Particulars: HEK-293-SNCA-luc viability, GF-AFC fluorescence, 24 h. The text has this: Assay Submitter (PI): Daniel R. Scoles Ph.D.
Department of Neurology, University of Utah, Salt Lake City, Utah
Accumulation of alpha-synuclein is a main underlying pathological feature of Parkinson's disease (PD) and alpha-synucleinopathies, for which lowering expression of the alpha-synuclein gene (SNCA) is a potential therapeutic avenue. Using a cell-based luciferase reporter of SNCA expression we performed a quantitative high throughput screen (qHTS) of 155,885 compounds in dose response. The screening assay was generated using genome editing to insert the luciferase gene downstream and in frame of the SNCA gene in HEK-293 cells (1). A viability counterscreen using GF-AFC was used to eliminate cytotoxic and false positive compounds. After in silico analysis (clustering, removal of frequent hitter nuisance chemotypes), inhibitor compounds from the primary screen were selected for follow up and re-tested at 11-doses in the SNCA-luc cells (luciferase and GF-AFC confirmation), and in CMV-luc expressing cell line to flag general transcriptional repressors.
Described herein are the results of the GF-AFC viability counterscreen for SNCA inhibitors; inactivity (no decrease in fluorescence signal, not cytotoxic) is the desired output for this assay.
1. Dansithong, W., Paul, S., Scoles, D. R., Pulst, S. M., and Huynh, D. P. (2015) Generation of SNCA Cell Models Using Zinc Finger Nuclease (ZFN) Technology for Efficient High-Throughput Drug Screening. PLoS ONE 10, e0136930.
SEQUENCE No. (e.g., 1, 2, 3, etc.); […] (e.g., Cells, Incubation, Reagent, etc.); VALUE; DESCRIPTION
1; Cells; 4 uL; Dispense 1500 HEK-293-SNCA-luc cells/well into Greiner 1536-well white / solid bottom tissue culture treated plate. The plate was covered with metal lids with gas-exchange holes.
2; Incubate; 24 hours; Incubate at 37C, 5% CO2, 95% RH.
3; Compounds; 23 nL; Compounds and controls were transferred via a Kalypsys Pin Tool (Wako USA) equipped with a 1536-slotted pin array. The plate was covered with metal lids with gas-exchange holes.
4; Incubate; 24 hours; Incubate at 37C, 5% CO2, 95% RH.
5; Dispense; 1 uL; Dispense Gly-Phe-7-amino-4-trifluoromethylcoumarin (GF-AFC, prepared at 125 uM in PBS) was added. The plate was covered with metal lids with gas-exchange holes.
6; Incubate; 30 min; Incubate at 37C, 5% CO2.
7; Detector; Fluorescence; Measure fluorescence with ViewLux microplate reader (PerkinElmer) equipped with 405/10 excitation and 540/25 emission filters.
8; Dispense; 3 uL; Dispense ONE-Glo ([…]) lucifase detection reagent was added to each well. […]
10; Detector; Luminescence; Measure luminescence with ViewLux microplate reader (PerkinElmer) equipped with clear filters. […]
10; Signals were analyzed, and dose-response curves were fit using the Hill equation. […]

With `CCC(=O)N(c1ccccc1)C1(COC)CCN(CCn2nnn(CC)c2=O)CC1`, the activity change, negative = cytotoxicity (at 57.1 µM (top of the series)) is inactive: 82.1%.

For the compound `CCC(=O)N(c1ccccc1)C1(COC)CCN(CCc2cccs2)CC1`, the activity change, negative = cytotoxicity (at 57.1 µM (top of the series)) is inactive: 35.5%.

For the compound `CN(CCCl)CCCl`, the activity change, negative = cytotoxicity (at 23.9 µM (top of the series)) is inactive: 40.8% and the activity change, negative = cytotoxicity (at 57.1 µM (top of the series)) was inactive: -7.43%.
